Only a part is listed here, and it is no random draw. Some of these compounds have results that are not shown, active ones among them. Calls of active or inactive are those of the source. Rule as the data show it: active = inhibition above about 20% (passing the limit was not always enough); inactive = the rest.

Protein sequences, listed by entry. Tags and fused reporters are not part of them. Residues count along the entry.
UniProt P00748, 20-372 limits assumed: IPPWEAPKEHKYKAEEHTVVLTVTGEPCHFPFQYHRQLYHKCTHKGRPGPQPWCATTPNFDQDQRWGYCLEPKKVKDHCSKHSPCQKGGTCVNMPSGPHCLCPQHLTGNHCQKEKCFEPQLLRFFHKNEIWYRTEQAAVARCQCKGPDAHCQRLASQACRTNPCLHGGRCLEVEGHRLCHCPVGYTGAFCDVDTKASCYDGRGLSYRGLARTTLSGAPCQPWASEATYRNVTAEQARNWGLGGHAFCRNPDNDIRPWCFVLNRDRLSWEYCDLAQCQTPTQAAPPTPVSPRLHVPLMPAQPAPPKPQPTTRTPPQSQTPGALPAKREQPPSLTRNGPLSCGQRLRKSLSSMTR
UniProt P00748, 373-615 limits assumed: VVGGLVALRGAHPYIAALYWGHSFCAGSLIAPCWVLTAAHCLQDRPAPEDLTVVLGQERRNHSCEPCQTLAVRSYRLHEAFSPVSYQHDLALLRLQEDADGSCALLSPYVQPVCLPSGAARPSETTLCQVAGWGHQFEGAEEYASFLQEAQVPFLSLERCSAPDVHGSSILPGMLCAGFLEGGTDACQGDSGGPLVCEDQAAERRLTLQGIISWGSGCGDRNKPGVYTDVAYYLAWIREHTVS

The target in this test is Coagulation factor XII (Homo sapiens) (UniProt P00748). Description: blockers of FXIIa protease activity – biochemical, pooled compound mixtures, fluorogenic substrate, primary screen (AID 684).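 Also: 0% = enzyme without compound and 100% = no enzyme blank.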 As to conditions: purified FXIIa, at 5 µM, hits give high values.
What is called inhibition is the relative decrease from the control value, in per cent. Turning to `CN(C)c1cccc(C(=O)NCC2(N(C)C)CCCCC2)c1`, the inhibition was inactive: 0.68%.

Regarding `O=C(OC1CN2CCC1CC2)C(CO)(c1ccccc1)c1ccccc1` (configuration not stated), the inhibition was inactive: 0.21%.
